Experimental data: ChEMBL document CHEMBL4665786, “Cellular Target Proteome in Breast Cancer Cells of an Oplopane Sesquiterpenoid Isolated from Tussilago farfara” (J Nat Prod, 2020)

Assays:
[1] = biological target: T1, Peroxiredoxin-1 (Homo sapiens) (UniProt Q06830)
T1 sequence (whole entry): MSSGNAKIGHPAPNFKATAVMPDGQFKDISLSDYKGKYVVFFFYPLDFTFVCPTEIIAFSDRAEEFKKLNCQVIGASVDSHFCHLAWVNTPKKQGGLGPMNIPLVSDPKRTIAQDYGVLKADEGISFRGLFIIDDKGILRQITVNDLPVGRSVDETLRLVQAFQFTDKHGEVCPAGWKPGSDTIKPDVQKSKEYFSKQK

Homo sapiens [2] = species on record: Homo sapiens
[3] = biological target: T1, Peroxiredoxin-1 (Homo sapiens); remark: listed apart in the source
Homo sapiens [4] = species on record: Homo sapiens; remark: listed apart in the source

- Ka [1]: 2.15 10^4/M
- Ka (Homo sapiens [2]): 3.94 10^4/M
- deltaH [3]: -18.9 kJ/mol
- deltaH (Homo sapiens [4]): -27.2 kJ/mol
Compound: C=C1[C@H]2[C@@H](/C(=C/C)C(=O)[C@H]2OC(=O)C(C)CC)[C@H](C(C)C)C[C@H]1OC(=O)/C=C(\C)CC (some centres undefined)
